From US20100076003A1, “5-OXAZOLIDIN-2-ONE SUBSTITUTED 1,3,8-TRIAZASPIRO[4.5]DECAN-4-ONE DERIVATIVES USEFUL AS ORL-1 RECEPTOR MODULATORS” (published 2010)

Experiments:
[1] = biological target: Kappa (κ) opioid receptor (Homo sapiens, UniProt P41145); experiment: Filtration binding assay, kappa opioid receptor, U-69,593-3H ligand; details: 2C2 cell line membrane, 2.76 nM U-69,593-3H
[2] = biological target: Mu (μ) opioid receptor (Homo sapiens, UniProt P35372); experiment: Filtration binding assay, mu opioid receptor, DAMGO-3H ligand; details: 1D4 cell line membrane, 0.8993 nM DAMGO-3H
[3] = biological target: Delta (δ) opioid receptor (Homo sapiens, UniProt P41143); experiment: Filtration binding assay, delta opioid receptor, DPDPE-3H ligand; details: read-out: Delta Ki; 2D4 cell line membrane, 2.44 nM DPDPE-3H; mean if tested more than once

SMILES: O=C1NC[C@@H](CN2CN(c3ccc(F)cc3)C3(CCN([C@@H]4Cc5cccc6cccc4c56)CC3)C2=O)O1
- IC50 ([1]; read-out: Kappa IC50 (cell in Ki column marked IC50), value noted as IC50 in the cell): 510 nM
- IC50 ([2]; read-out: Mu IC50 (cell in Ki column marked IC50), value noted as IC50 in the cell): 160 nM

SMILES: O=C1NC[C@H](CN2CN(c3ccc(F)cc3)C3(CCN(CC4CCCCCCC4)CC3)C2=O)O1
- Ki [3]: > 5000 nM
- Ki ([1]; read-out: Kappa Ki, mean if tested more than once): 130 nM
- Ki ([2]; read-out: Mu Ki, mean if tested more than once): 60 nM
